According to patent US20250011881A1, “MYC-HSF1 DUAL AMPLIFICATION AS A BIOMARKER FOR CANCER TREATMENT” (The Trustees of Indiana University, priority 2023, published 2025):

System: ovarian cancer cells with (OVCAR8, OVCAR4) or without (OVSAHO, CAOV3) MYC-HSF1 amplification
Experiment: Epigenetic inhibitor drug screen, cell viability (Cell Titer Blue)
Type: cell-based

Substance: Sephin1
- Non Amp - AMP (POC) 10 uM: 2.094 POC
